Measured values taken from patent US6451339B2, “Compositions and methods for improved delivery of hydrophobic agents” (Lipocine, Inc., priority 1999, dated 2002).

How the values were obtained:
[1] = value reported by the manufacturer of the commercial product, a rough average, or inventors' judgment; cited from earlier work
[2] = Surfactant combinations giving clear aqueous dispersions (maximum hydrophobic surfactant, visual optical clarity); settings: 10× aqueous dispersion, no solubilizer

Substance: PEG-15-100 octyl phenol ether
HLB [1]: >10

Substance: PEG-10-100 nonyl phenol
HLB [1]: >10

Substance: Propylene glycol caprylate/caprate
HLB [1]: >6

approximate maximum grams of hydrophobic surfactant per 100 g of hydrophilic surfactant giving acceptable optical clarity ([2]; hydrophilic surfactant PEG-8 Capric/Caprylic (Labrasol)): 20 g per 100 g of hydrophilic sur
approximate maximum grams of hydrophobic surfactant per 100 g of hydrophilic surfactant giving acceptable optical clarity ([2]; hydrophilic surfactant PEG-25 Glyceryl trioleate (Tagat TO)): 10 g per 100 g of hydrophilic sur
approximate maximum grams of hydrophobic surfactant per 100 g of hydrophilic surfactant giving acceptable optical clarity ([2]; hydrophilic surfactant PEG-35 Castor Oil (Incrocas 35)): 10 g per 100 g of hydrophilic sur
approximate maximum grams of hydrophobic surfactant per 100 g of hydrophilic surfactant giving acceptable optical clarity ([2]; hydrophilic surfactant PEG-40H Castor Oil (Cremophor RH-40)): 50 g per 100 g of hydrophilic sur
approximate maximum grams of hydrophobic surfactant per 100 g of hydrophilic surfactant giving acceptable optical clarity ([2]; hydrophilic surfactant PEG-60 Corn Oil (Crovol M-70)): 25 g per 100 g of hydrophilic sur
approximate maximum grams of hydrophobic surfactant per 100 g of hydrophilic surfactant giving acceptable optical clarity ([2]; hydrophilic surfactant Polysorbate 80 (Tween 80)): 25 g per 100 g of hydrophilic sur
approximate maximum grams of hydrophobic surfactant per 100 g of hydrophilic surfactant giving acceptable optical clarity ([2]; hydrophilic surfactant Polysorbate-20 (Tween 20)): 20 g per 100 g of hydrophilic sur
Substance: Glyceryl caprylate/caprate

Each block holds one substance with its values, some of them ahead of it.
